Experimental data published in PMC6753081 (Nature Communications, 2019).

Protein sequences, listed by entry. Tags and fused reporters are not part of them. Lines headed by an entry give the natural chain unless they say otherwise; changes in a name come on top.
UniProt Q4WLV6: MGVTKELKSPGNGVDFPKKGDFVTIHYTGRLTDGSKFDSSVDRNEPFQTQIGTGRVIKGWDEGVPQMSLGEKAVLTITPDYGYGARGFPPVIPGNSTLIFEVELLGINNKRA

Target: T1, AfFKBP12 (Aspergillus fumigatus, UniProt Q4WLV6)
T1 construct: gene fpr1A
Details: pH […] °C, […] phosphate, […] NaCl; […] protein

C=CC[C@@H]1/C=C(\C)C[C@H](C)C[C@H](OC)[C@H]2O[C@@](O)(C(=O)C(=O)N3CCCC[C@H]3C(=O)O[C@H](/C(C)=C/[C@@H]3CC[C@@H](O)[C@H](OC)C3)[C@H](C)[C@@H](O)CC1=O)[C@H](C)C[C@@H]2OC [FK506]
1H-15N HSQC NMR titration: AfFKBP12 residues Ile25, His26, Tyr27, Val102, and Glu103 showed large chemical shift factors
